The record followed here is ChEMBL document CHEMBL5725928, “Substituted 4,5,6,7-tetrahydropyrazolo[1,5-A]pyrazine derivatives as casein kinase 1 D/E inhibitors” (2017).

Chains of the proteins cited; added tags and fusions are not shown. Lines headed by an entry give the natural chain unless they say otherwise; changes in a name come on top.
UniProt P49674: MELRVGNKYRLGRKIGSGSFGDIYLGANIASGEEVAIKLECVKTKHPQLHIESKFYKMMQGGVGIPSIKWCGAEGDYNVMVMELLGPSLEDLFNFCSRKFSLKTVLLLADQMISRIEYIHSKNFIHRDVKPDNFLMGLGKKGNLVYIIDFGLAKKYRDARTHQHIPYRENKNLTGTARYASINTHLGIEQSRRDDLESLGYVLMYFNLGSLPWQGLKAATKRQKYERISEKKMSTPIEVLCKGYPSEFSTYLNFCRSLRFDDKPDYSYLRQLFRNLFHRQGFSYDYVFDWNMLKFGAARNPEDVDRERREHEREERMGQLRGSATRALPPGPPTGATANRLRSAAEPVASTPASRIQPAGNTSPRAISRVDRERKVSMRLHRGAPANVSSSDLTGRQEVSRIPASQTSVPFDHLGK

For the assay, the target named is Casein kinase I isoform epsilon (Homo sapiens, UniProt P49674). Kind of assay: IC50 values were derived by non-linear regression analysis.

pIC50: −log10 of the molar value.

One may read the pIC50 as −log10 of the IC50, conventionally taken in molar units. High values mean a small IC50, low ones a large IC50.

With `CC(C)(C)[C@H]1CN(C(=O)Nc2ccc(C#N)cc2)Cc2c(C(N)=O)c(-c3ccc(F)c(Cl)c3)nn21`, the pIC50 was above 8.00.
